Laboratory results from PMC3983353 (Journal of Medicinal Chemistry, 2014).

Tested on: N=C(N)NCCC[C@H](N)C(=O)O
Test: purified protein, by the assay type
Details: other: substrate Km used in the Ki equation; pH 7.4; 37.0 °C

murine macrophage iNOS (Mus musculus) showed a Km of 8.2 µM.
